Experimental data from patent US20250333517A1.

Target: tumor necrosis factor-alpha (TNFα) (UniProt P01375)
Test: ELISA, target binding (FIG. 59)

Substance | EC50 [nM]
Adalimumab population of the present disclosure (Biobetter), produced by SAII A3 cells (antibody; other documents disagree on this pair) | 0.373
commercially available Adalimumab product (Humira®) (antibody; other documents disagree on this pair) | 0.213
